# Laboratory results from patent publication US9290490B2 (Merck Sharp & Dohme Corp., priority 2011, dated 2016).
# pIC50: −log10 of the molar value.
# Molecular target: recombinant human GST-Syk (Homo sapiens (Human), UniProt P43405)
# Assay: Homogeneous Time-Resolved Fluorescence (HTRF) Assay for the Recombinant Human Syk Enzyme
# Format: biochemical
# Conditions: read-out: rhSyk Activity (IC50); recombinant human GST-Syk 5 pM, ATP 25 μM
row,SMILES,pIC50
1,"Cc1cc(Nc2nccc(C(F)F)n2)cc(-c2cnc(C(C)(O)[C@H]3CC[C@H](C(=O)O)CC3)s2)c1 (single isomer, unassigned)",> 7.00
2,"CCCCOC(=O)[C@H]1CC[C@H](C(C)(O)c2ncc(-c3cc(C)cc(Nc4nccc(C(F)F)n4)c3)s2)CC1 (single isomer, unassigned)",6.00 to 7.00
3,"CCOC(=O)[C@@H]1CC[C@@H](C(C)(O)c2ncc(-c3cc(C)cc(Nc4nccc(C)n4)c3)s2)C[C@@H]1C (single isomer, unassigned)",6.00 to 7.00
4,"Cc1cc(Nc2nccc(C(F)(F)F)n2)cc(-c2cnc(C(C)(O)C3CC3C(C)(C)C(=O)O)s2)c1 (single isomer, unassigned)",> 7.00
5,"CCCCOC(=O)[C@H]1CC[C@@H](C(C)(O)c2ncc(-c3cc(C)cc(Nc4nccc(C(F)(F)F)n4)c3)s2)CC1 (single isomer, unassigned)",6.00 to 7.00
6,"Cc1cc(Nc2ncc(F)c(C)n2)cc(-c2cnc(C(C)(O)C3CC(CC(=O)O)C3(C)C)s2)c1 (single isomer, unassigned)",> 7.00
7,"CCOC(=O)[C@H]1CC[C@H](C(O)(CC)c2ncc(-c3cc(C)cc(Nc4nccc(C(F)(F)F)n4)c3)s2)CC1 (single isomer, unassigned) [2-5]",6.00 to 7.00
8,"Cc1cc(Nc2nccc(C)n2)cc(-c2cnc(C(C)(O)C3CC(CC(=O)O)C3(C)C)s2)c1 (single isomer, unassigned)",> 7.00
9,"Cc1cc(Nc2nccc(C(F)F)n2)cc(-c2cnc(C(O)([C@H]3CC[C@H](C(=O)O)CC3)C(F)(F)F)s2)c1 (single isomer, unassigned)",> 7.00
10,"CCOC(=O)C1CCC(C(C)(O)c2ncc(-c3cc(C)cc(Nc4nccc(C)n4)c3)s2)CC1C (single isomer, unassigned)",6.00 to 7.00

# Same assay, conditions: read-out: rhSyk Activity (IC50); recombinant human GST-Syk 5 pM, ATP 25 μM; tested form: TFA
row,SMILES,pIC50
1,"Cc1cc(Nc2nccc(C(F)(F)F)n2)cc(-c2cnc(C(F)[C@H]3CC[C@H](C(=O)O)CC3)s2)c1 (single isomer, unassigned)",> 7.00
2,"Cc1cc(Nc2nccc(C(F)(F)F)n2)cc(-c2cnc(C(F)[C@H]3CC[C@@H](C(=O)O)CC3)s2)c1 (single isomer, unassigned)",> 7.00
3,"COc1nc(Nc2cc(C)cc(-c3cnc(C(C)(O)C4CCC(C(=O)O)C(C)C4)s3)c2)ncc1F (single isomer, unassigned)",> 7.00
4,Cc1cc(Nc2nccc(C(F)(F)F)n2)cc(-c2cnc(C(CO)[C@H]3CC[C@H](C(=O)O)CC3)s2)c1 (some centres unmarked),> 7.00

# Same assay, conditions: read-out: rhSyk Activity (IC50); recombinant human GST-Syk 5 pM, ATP 25 μM; tested form: ammonium salt
row,SMILES,pIC50
1,"Cc1cc(Nc2nccc(C(C)C)n2)cc(-c2cnc(C(C)(O)[C@H]3CC[C@H](C(=O)O)CC3)s2)c1 (single isomer, unassigned)",> 7.00
2,Cc1cc(Nc2nccc(C(F)(F)F)n2)cc(-c2cnc(C(C)(O)[C@@H]3C[C@H](CC(=O)O)C3(C)C)s2)c1 (relative stereo),> 7.00

# Same assay, conditions: read-out: rhSyk; recombinant human GST-Syk 5 pM, ATP 25 μM, 10-dose titration
row,SMILES,pIC50
1,"Cc1cc(Nc2nccc(C(F)F)n2)cc(-c2cnc(C(C)(O)[C@H]3CC[C@H](C(=O)O)CC3)s2)c1 (single isomer, unassigned)",8.70
